The numbers were not newly measured in PMC9932299, which cites them from elsewhere.

Protein sequences, listed by entry. Tags and fused reporters are not part of them. Residues count along the entry.
UniProt P05067, 672-711: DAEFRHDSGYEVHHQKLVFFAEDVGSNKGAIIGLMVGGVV
UniProt P02649, 19-317: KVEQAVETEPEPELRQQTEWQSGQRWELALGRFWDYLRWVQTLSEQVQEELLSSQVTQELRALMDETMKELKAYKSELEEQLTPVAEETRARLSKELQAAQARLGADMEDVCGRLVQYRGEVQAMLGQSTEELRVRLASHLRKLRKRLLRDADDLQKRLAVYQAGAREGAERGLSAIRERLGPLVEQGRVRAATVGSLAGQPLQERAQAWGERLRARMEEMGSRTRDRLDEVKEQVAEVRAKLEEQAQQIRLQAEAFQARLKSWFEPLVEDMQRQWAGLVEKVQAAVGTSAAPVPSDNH

The series deals with Amyloid-beta (Homo sapiens) (UniProt P05067).

For the substance Apolipoprotein E (from UniProt P02649), the Kd was 20 nM.

A word on the Kd: it is the free concentration of one partner at which half of the binding sites on the other are occupied at equilibrium, for simple one-to-one binding.
